Measured values published in patent US10421747B2, “Quinoxaline derivatives useful as FGFR kinase modulators” (ASTEX THERAPEUTICS LTD, priority 2014, dated 2019).

Test system: Ba/F3-KDR-transfected cells
Assay: Ba/F3-KDR (minus IL3 or plus IL3) cellular proliferation assay
Format: cell-based
Details: plus IL3 (10 ng/ml murine IL3), counterscreen; read-out: BAF3-KDR (PLUS IL3 pIC50) (converted)

COc1cc(OC)c2c(c1)N(c1ccc3ncc(-c4cnn(C)c4)nc3c1)CCN(C(C)C)C2 [Compound 1]
IC50: > 10 µM
